AlphaSeq binding of Ab-14 heavy chain variants to a spike HR2 peptide

The target is the same throughout: PDVDLGDISGINAS, from the HR2 region of SARS-CoV-2 spike.

Ab-14 is the parent antibody, in scFv form: VH, then three GGGGS repeats, then VL. The light chain is unchanged in all variants.
VH: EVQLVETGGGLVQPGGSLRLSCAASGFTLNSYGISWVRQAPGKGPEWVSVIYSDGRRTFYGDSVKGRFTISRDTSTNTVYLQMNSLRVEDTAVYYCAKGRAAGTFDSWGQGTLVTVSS
VL: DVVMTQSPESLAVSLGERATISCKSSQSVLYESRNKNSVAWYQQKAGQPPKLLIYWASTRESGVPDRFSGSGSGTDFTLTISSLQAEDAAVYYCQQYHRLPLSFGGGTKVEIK

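Phage display of a naive human antibody library on the peptide gave the parent. These sequences belong to a second round, designed from the earlier measurements on random variants of the parent. Several design methods are mixed in this list. The assay is AlphaSeq: two haploid yeast populations carry antibody and antigen on their surface. Pairs that bind mate more often; barcode pairs of the diploids are counted by sequencing. Scores were corrected for input abundance and mapped to Kd with protein pairs of known affinity run in the same pool. Each pool was mated in six replicate cultures.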

Variants are written as CDR1, CDR2 and CDR3 of the heavy chain (limits as in the source). Parent: GFTLNSYGIS, VIYSDGRRTFYGDSVK, GRAAGTFDS. This list holds designs with more than six substitutions. Scale: log10 of Kd in nM, estimated from mating counts; low values are strong binders. "nd" marks a missing value. The strain was present, yet no cells mated with the target were sequenced in that replicate, which points to weak or no binding.

With GFDLDEYGIS | VIYADGKRTAYADSVK | GNNAGTFDM the result was -0.31, 0.08, -0.14, 0.13, -0.30, -0.39 (controls 0 of 18). With GFDLEDYGIS | VIYADGRRTAYSDSVK | GEIAGTFDS the result was -0.23, -0.09, 0.00, -0.26, -0.01, -0.12 (controls 1 of 18). For GFDLNEYGIS | VIYADGIRTAYADSVK | GNNAGTFDV, the assay gave -0.03, -0.50, -0.31, -0.53, -0.73, -0.18 (controls 1 of 18). For GFDLDEYGIS | VIYADGVRTAYTDSVK | GENAGTFDL, the assay gave -0.17, -0.08, -0.20, -0.20, -0.46, -0.29 (controls 0 of 18). Variant GFDLMEYGIS | VIYADGMRQAYANKVK | GGITDSGLI gave nd, nd, nd, nd, nd, nd (controls 0 of 18).

With GFNLDEYGIS | VIYADGRRNAYRDKVK | GAHDFDLKT the result was nd, nd, nd, nd, nd, nd (controls 0 of 18). Variant GFDLNEYGIS | VIYADGKRTFYADSVK | GKAAGTFDQ gave -0.41, -0.20, -0.40, 0.05, -0.77, 0.08 (controls 1 of 18). Variant GKDLEEYGIS | VIYADGVRTAYLDQVK | GESGGAYYT gave nd, nd, nd, nd, nd, nd (controls 0 of 18). With GFDLNEYGIS | VIYADGVRTAYAESVK | GNNAGTFDV the result was 0.46, -0.80, -0.03, -0.89, -0.84, -0.23 (controls 0 of 18). For GFNLDEYGIS | VIYADGMRTAYGNNVK | GTVFGDYVS, the assay gave nd, nd, nd, nd, nd, nd (controls 0 of 18).

For GFDLNEYGIS | VIYADGVRTFYADSVK | GHVAGTFVS, the assay gave -0.11, -0.03, -0.54, -0.58, -0.03, -0.04 (controls 1 of 18). Variant GFDLNEYGIS | VIYADGRRTFYADSVK | GEEAGTFNM showed -0.39, -0.41, -0.60, -0.77, -0.81, -0.99 (controls 1 of 18). With GMDLQEFGIS | VIYADGVREYYTDDFK | GQIAGTFDD the result was 0.95, 1.19, 1.05, 0.67, 1.09, 1.10 (controls 0 of 18). Variant GFDLNEYGIS | VIYADGRRTFYIDSVK | GETAGTFDV gave 0.10, 0.21, 0.12, -0.66, -0.13, 0.04 (controls 0 of 18). Variant GFDINEYGIS | VIYADGRRTFYADSVK | GQTAGTFDM showed -0.27, -0.66, -1.09, -0.52, -0.89, -1.02 (controls 0 of 18).

Variant GFELNEYGIS | VIYADGMKQAYRDAVK | GGIAGNFMM showed nd, nd, 1.27, 1.07, 1.23, 1.95 (controls 0 of 18). Variant GFDLNEYGIS | VIYADGVRTFYADSVK | GQNAGTFTL gave -0.01, -0.02, -0.32, -0.64, -0.32, -0.20 (controls 0 of 18). Variant GFSLDEYGIS | VIYADGVRQAYQDSVK | GQWHGTFNY showed -0.04, 0.13, 0.38, 0.54, 0.42, 0.25 (controls 0 of 18). Variant GFDLEEYGIS | VIYADGRRTFYSDSVK | GENAGTFDI showed -0.07, -0.08, -0.33, -0.68, -0.14, 0.09 (controls 0 of 18). For GFDLNEYGIS | VIYADGRRTAYTDSVK | GNVAGTFDI, the assay gave -0.19, -0.65, -0.43, -1.02, -0.51, -0.33 (controls 0 of 18).

For GFDLNEYGIS | VIYADGRRTFYSDSVK | GNQAGTFDV, the assay gave -0.15, -0.67, -0.99, -0.69, 0.10, 0.58 (controls 0 of 18). Variant GFDLDEYGIS | VIYADGTRRSYADNVK | GDYHYVVST showed nd, nd, nd, nd, nd, nd (controls 0 of 18). For GFDLNEYGIS | VIYADGMRTAYADSVK | GGQAGTFDV, the assay gave -0.51, -0.84, -0.84, -0.85, -0.94, -0.62 (controls 3 of 18). Variant GFNLNEYGIS | VIYADGMRTFYADSVK | GQQAGTFDM gave -0.46, -0.27, -1.05, -0.83, -0.69, -0.38 (controls 1 of 18). Variant GFDLNEYGIS | VIYADGKRTAYSDSVK | GNQAGTFDM gave -0.17, 0.05, -0.32, -0.38, -0.17, 0.03 (controls 0 of 18).

For GFDIDEQGIS | VIYADGLRVAYKDRVK | GAGSGVIDM, the assay gave nd, nd, nd, nd, nd, nd (controls 0 of 18). Variant GFDLNEYGIS | VIYADGMRTAYTDDVK | GNVAGTFDM showed -0.56, -0.60, -0.26, -0.77, -0.24, -0.39 (controls 0 of 18). Variant GFDLNEYGIS | VIYADGHRTRYSNNVK | GGVGGIGLS gave 1.63, 1.97, 2.28, 1.52, 2.43, 2.27 (controls 0 of 18). Variant GFDLNEYGIS | VIYADGMRKAYSDSVK | GNVAGTFDI gave -0.45, -0.69, -0.02, -0.24, -0.51, 0.00 (controls 0 of 18). With GFDLNEYGIS | VIYADGRRTFYSDSVK | GEAAGTFVQ the result was 0.50, 0.64, 0.69, 0.19, 1.30, 0.45 (controls 0 of 18).

For GFDLNEYGIS | VIYADGKRTAYANSVK | GNQAGTFDV, the assay gave -0.11, -0.52, -0.50, -0.82, -0.73, -0.51 (controls 0 of 18). Variant GDNLDEYGIS | VIYADGHRTAYSDPVK | GEWGVTVGQ gave nd, nd, nd, nd, nd, nd (controls 0 of 18). Variant GFDLNEYGIS | VIYADGVRTFYIDSVK | GEAAGTFDM showed 0.14, -0.17, -0.71, -0.73, -0.26, -0.49 (controls 0 of 18). With GFDLNEYGIS | VIYADGKRTAYVDDVK | GENAGTFDV the result was 0.12, 0.23, 0.28, 0.13, 0.30, 0.24 (controls 0 of 18). With GFDLNEYGIS | VIYADGRRSFYADSVK | GNLAGTFDS the result was 0.43, -0.97, -0.86, -0.86, -0.51, -1.00 (controls 0 of 18).

Variant GFDLDEYGIS | VIYADGRRTFYADSVK | GQVAGTFDV showed -0.69, -0.29, -0.82, -0.47, -0.95, -0.83 (controls 0 of 18). With GFDLNEYGIS | VIYADGVRTAYADSVK | GKVAGTFNV the result was -0.45, -0.18, -0.65, -0.68, -0.76, -0.56 (controls 0 of 18). With GFDIEEYGIS | VIYADGVRTMYADDVK | GIAKGYSLT the result was nd, nd, nd, nd, nd, nd (controls 0 of 18). With GFDLGEYGIS | VIYADGQRAAYQQQFK | GEAGAAFDL the result was nd, nd, 1.53, nd, 2.43, nd (controls 0 of 18). With GFSIDEYGIS | VIYADGTRTAVATSVK | GGLVAYFDK the result was nd, nd, nd, nd, nd, nd (controls 0 of 18).

The opening 4 entries, copied out:

{"CDR-H1": "GFDLDEYGIS", "CDR-H2": "VIYADGKRTAYADSVK", "CDR-H3": "GNNAGTFDM", "log10 Kd, replicates": "-0.31, 0.08, -0.14, 0.13, -0.30, -0.39", "control signals": "0 of 18"}
{"CDR-H1": "GFDLEDYGIS", "CDR-H2": "VIYADGRRTAYSDSVK", "CDR-H3": "GEIAGTFDS", "log10 Kd, replicates": "-0.23, -0.09, 0.00, -0.26, -0.01, -0.12", "control signals": "1 of 18"}
{"CDR-H1": "GFDLNEYGIS", "CDR-H2": "VIYADGIRTAYADSVK", "CDR-H3": "GNNAGTFDV", "log10 Kd, replicates": "-0.03, -0.50, -0.31, -0.53, -0.73, -0.18", "control signals": "1 of 18"}
{"CDR-H1": "GFDLDEYGIS", "CDR-H2": "VIYADGVRTAYTDSVK", "CDR-H3": "GENAGTFDL", "log10 Kd, replicates": "-0.17, -0.08, -0.20, -0.20, -0.46, -0.29", "control signals": "0 of 18"}

Nonspecific signal, from three strains lacking the peptide, appeared in 1% of pairings of all heavy chain designs, centred on 2.08 (5% of these signals below 0.84); values are not corrected for it. For each scFv, signals with the empty controls are counted beside the result. The parent sequence was in this pool as ten entries: three were never detected, three once, and four in most replicates, with averages from 0.34 to 2.37. Values of this round are not directly comparable with the first-round values of the same sequences. In the paper, a design with two or fewer of six values counts as a poor binder.

From the AlphaSeq antibody data of Li et al. 2023 (doi:10.1038/s41467-023-39022-2), copy in the FLAb collection.